Measurements published in patent US7910548B2, “Methods for treating obesity” (Amylin Pharmaceuticals, Inc., priority 1997, dated 2011).

Test: Measurement of body weight in insulin-using Type II diabetes patients, 4-week study
Format: in vivo, human
Conditions: for Body Weight: Change at Week 4, Mean: 4 weeks, change from baseline, with continued insulin
Protocol: Study participants were males and females 25 to 78 years of age with a history of Type II diabetes mellitus requiring treatment with insulin for at least 6 months prior to the pre-screening visit. […] The study employed methods described in Thompson et al., Diabetes 46:632-636 (1997). Following a placebo lead-in period, patients were randomized to receive placebo or one of three dose regimens of ^25,28,29Pro-h-amylin (pramlintide) for 4 weeks: 30 μg QID (before breakfast, lunch, dinner and evening snack), 60 μg TID (before breakfast, lunch and dinner) or 60 μg QID (before breakfast, lunch, dinner and evening snack). Throughout the study drug period, patients self-administered four injections of study drug daily, within 15 minutes of each meal and the evening snack. During the double-blind period, patients randomized to pramlintide 60 μg TID administered placebo before the evening snack. Both pramlintide and placebo were administered as separate injections into the subcutaneous tissue of the anterior abdominal wall; the specific site was alternated after each injection. Patients were instructed to remain on their usual diet, insulin and exercise regimens throughout the study, unless otherwise instructed by the investigator, and to abstain from alcoholic beverages prior to all clinic visits.

For `CC[C@H](C)[C@H](NC(=O)[C@@H]1CCCN1C(=O)CNC(=O)[C@H](Cc1ccccc1)NC(=O)[C@H](CC(N)=O)NC(=O)[C@H](CC(N)=O)NC(=O)[C@H](CO)NC(=O)[C@H](CO)NC(=O)[C@H](Cc1c[nH]cn1)NC(=O)[C@@H](NC(=O)[C@H](CC(C)C)NC(=O)[C@H](Cc1ccccc1)NC(=O)[C@H](CC(N)=O)NC(=O)[C@H](C)NC(=O)[C@H](CC(C)C)NC(=O)[C@H](CCCNC(=N)N)NC(=O)[C@H](CCC(N)=O)NC(=O)[C@@H](NC(=O)[C@H](C)NC(=O)[C@@H]1CSSC[C@H](NC(=O)[C@@H](N)CCCCN)C(=O)N[C@@H](CC(N)=O)C(=O)N[C@@H]([C@@H](C)O)C(=O)N[C@@H](C)C(=O)N[C@@H]([C@@H](C)O)C(=O)N1)[C@@H](C)O)C(C)C)C(=O)N[C@@H](CC(C)C)C(=O)N1CCC[C@H]1C(=O)N1CCC[C@H]1C(=O)N[C@H](C(=O)N[C@@H](CC(N)=O)C(=O)N[C@H](C(=O)NCC(=O)N[C@@H](CO)C(=O)N[C@@H](CC(N)=O)C(=O)N[C@H](C(=O)N[C@@H](Cc1ccc(O)cc1)C(N)=O)[C@@H](C)O)C(C)C)[C@@H](C)O` [Pramlintide, ^25,28,29Pro-h-amylin], the “Body Weight: Change at Week 4, Mean” value (30 μg QID subcutaneous) was -0.36 kg, the “Body Weight: Change at Week 4, Mean” value (60 μg QID subcutaneous) was -0.72 kg and the “Body Weight: Change at Week 4, Mean” value (60 μg TID subcutaneous) was -0.89 kg. For the same compound, the “Effect on body weight (in words)” value (insulin-using Type 2 diabetics, statistically significant within 60 μg TID and 60 μg QID groups) was “decrease in body weight”.
